Amino acid sequences for entries named in this document (tags omitted). A change or cut given only in a name is not applied to a line headed by its entry.
UniProt P48736: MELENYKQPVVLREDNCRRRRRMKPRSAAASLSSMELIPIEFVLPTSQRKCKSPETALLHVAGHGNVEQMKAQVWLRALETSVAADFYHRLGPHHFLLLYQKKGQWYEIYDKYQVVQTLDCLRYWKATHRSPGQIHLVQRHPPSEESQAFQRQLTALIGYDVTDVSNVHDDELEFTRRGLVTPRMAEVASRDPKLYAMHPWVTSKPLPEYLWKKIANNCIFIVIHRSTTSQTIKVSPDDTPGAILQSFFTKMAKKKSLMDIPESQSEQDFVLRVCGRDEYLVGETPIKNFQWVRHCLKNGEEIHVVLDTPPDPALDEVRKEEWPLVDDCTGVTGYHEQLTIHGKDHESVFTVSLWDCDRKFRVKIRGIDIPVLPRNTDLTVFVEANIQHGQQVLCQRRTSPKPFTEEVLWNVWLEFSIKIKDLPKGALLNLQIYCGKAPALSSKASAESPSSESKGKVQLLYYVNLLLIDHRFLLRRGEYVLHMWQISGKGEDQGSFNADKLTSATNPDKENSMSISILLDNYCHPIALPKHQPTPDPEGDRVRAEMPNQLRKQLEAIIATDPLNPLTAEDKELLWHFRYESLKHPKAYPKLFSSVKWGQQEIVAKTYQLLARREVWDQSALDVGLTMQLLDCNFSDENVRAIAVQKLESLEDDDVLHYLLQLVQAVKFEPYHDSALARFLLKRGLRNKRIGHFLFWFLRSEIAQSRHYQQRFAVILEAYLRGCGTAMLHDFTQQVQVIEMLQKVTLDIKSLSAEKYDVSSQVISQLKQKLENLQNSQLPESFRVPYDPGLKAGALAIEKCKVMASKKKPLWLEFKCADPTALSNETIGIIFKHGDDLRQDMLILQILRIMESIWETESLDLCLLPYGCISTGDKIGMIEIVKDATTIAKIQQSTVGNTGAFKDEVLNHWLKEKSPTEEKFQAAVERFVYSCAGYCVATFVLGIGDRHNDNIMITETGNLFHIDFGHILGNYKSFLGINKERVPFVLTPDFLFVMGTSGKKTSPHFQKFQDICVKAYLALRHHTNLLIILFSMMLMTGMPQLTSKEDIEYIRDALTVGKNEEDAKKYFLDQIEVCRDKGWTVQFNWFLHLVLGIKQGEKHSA

One assay deals with PI3K γ (Homo sapiens, UniProt P48736). Kind of assay: PI3 kinase phosphorylation assay (Biological Method 1), Ki γ. It counts as biochemical. Particulars: Table 1, compounds of formula X. Here is the method:
The compounds of the invention were synthesized according to the examples provided above. PI3K inhibitory (IC50) values of the compounds were determined according to Biological Method 1.
Assay 1: Homogenous Solution Phase Assay
Compounds to be tested are dissolved in DMSO and directly distributed into 384-well flashplates at 1.25 μL per well. To start the reaction, 20 μL of 6 nM PI3 kinase are added into each well followed by 20 μL of 400 nM ATP containing a trace of radiolabeled ATP and 900 nM 1-alpha-phosphatidylinositol (PI). The plates are briefly centrifuged to remove any air gap. The reaction is performed for 15 minutes and then stopped by the addition of 20 μL of 100 mM EDTA. The stopped reaction is incubated overnight at RT to allow the lipid substrate to bind by hydrophobic interaction to the surface of the flashplate. The liquid in the wells is then washed away, and the labeled substrate is detected with scintillation counting.
Assay 2: One Step Solid Phase Assay
This method is similar to Assay 1 except that the lipid substrate (1-alpha-phosphatidylinositol (PI)) is first dissolved in a coating buffer and incubated on flashplate at room temperature overnight to allow the lipid substrate to bind by hydrophobic interaction to the surface of the flashplate. Unbound substrate is then washed away. On the day of assay, 20 μL of 6 nM PI3 kinase are added into each well followed by 20 μL of 400 nM ATP containing trace of radiolabeled ATP. Compounds are added together with enzyme and ATP to the lipid-coated plates. The plates are briefly centrifuged to remove any air gap. The reaction is performed for two to three hours. The reaction is stopped by addition of 20 μL of 100 mM EDTA or by immediate plate washing. Phosphorylated lipid substrate is detected by scintillation counting.
Assay 3: ATP Depletion Assay
Compounds to be tested are dissolved in DMSO and directly distributed into a black 384-well plate at 1.25 μL per well. To start the reaction, 25 μL of 10 nM PI3 kinase and 5 μg/mL 1-alpha-phosphatidylinositol (PI) are added into each well followed by 25 μL of 2 μM ATP. The reaction is performed until approx 50% of the ATP is depleted, and then stopped by the addition of 25 μL of KinaseGlo solution. The stopped reaction is incubated for 5 minutes and the remaining ATP is then detected via luminescence.
On to `CCn1nnc(CCNC(=O)Nc2cn3cc(-c4cncc(C(=O)N5CCOCC5)c4)ccc3n2)n1`, for which the affinity corresponds to a Ki of 0.083 µM.

Compound `CC(C)n1nnc(CCNC(=O)Nc2cn3cc(-c4cccnc4)ccc3n2)n1` [drawing 15] returned a Ki of 0.058 µM.

In the case of `CCn1nnc(CCNC(=O)Nc2cn3cc(-c4cccnc4)ccc3n2)n1` [drawing 23], the Ki was determined as 0.08 µM.

Compound `CC(C)(C)NC(=O)CCNC(=O)Nc1cn2cc(-c3cccnc3)ccc2n1` [drawing 35] yielded a Ki of 0.121 µM.

`CCn1cnc(CCNC(=O)Nc2cn3cc(-c4cccnc4)ccc3n2)c1` [drawing 77] showed an inhibitory constant (Ki) of 0.081 µM.

`CC(C)(C)OC(=O)CCNC(=O)Nc1cn2cc(-c3cccnc3)ccc2n1` [drawing 79] displayed a Ki of 0.043 µM.

Consider `Cn1nnc(CCNC(=O)Nc2cn3cc(-c4cccnc4)ccc3n2)n1` [drawing 85], for which the Ki came to 0.277 µM.

Consider `Cn1nnnc1CCNC(=O)Nc1cn2cc(-c3cccnc3)ccc2n1` [drawing 87], for which the affinity, expressed as Ki, was 0.584 µM.

The compound `CCc1nnn(CCNC(=O)Nc2cn3cc(-c4cccnc4)ccc3n2)n1` [drawing 101] yielded a Ki of 0.177 µM.

The assay is the same for the next values; noted with them: Table 2, compounds of formula X.
“1-[2-(2-Isopropyl-2H-tetrazol-5-yl)-ethyl]-3-(6-phenyl-imidazo[1,2-a]pyridin-2-yl)-urea [Example 1-10]” yielded an inhibitory constant (Ki) of 0.083 µM.

On to `CC(C)n1nnc(CCNC(=O)Nc2cn3cc(-c4cccnc4)ccc3n2)n1` [Example 1-1, 1-[2-(2-Isopropyl-2H-tetrazol-5-yl)-ethyl]-3-(6-pyridin-3-yl-imidazo[1,2-a]pyridin-2-yl)-urea], for which affinity was put at a Ki of 0.058 µM.

`CCn1nnc(CCNC(=O)Nc2cn3cc(-c4cccnc4)ccc3n2)n1` [Example 1-5, 1-[2-(2-Ethyl-2H-tetrazol-5-yl)-ethyl]-3-(6-pyridin-3-yl-imidazo[1,2-a]pyridin-2-yl)-urea] showed a Ki of 0.08 µM.

The compound `CC(C)(C)NC(=O)CCNC(=O)Nc1cn2cc(-c3cccnc3)ccc2n1` [Example 1-11, N-tert-Butyl-3-[3-(6-pyridin-3-yl-imidazo[1,2-a]pyridin-2-yl)-ureido]-propionamide] showed an inhibition constant (Ki) of 0.121 µM.

Turning to `CCn1cnc(CCNC(=O)Nc2cn3cc(-c4cccnc4)ccc3n2)c1` [Example 1-32, 1-[2-(1-Ethyl-1H-imidazol-4-yl)-ethyl]-3-(6-pyridin-3-yl-imidazo[1,2-a]pyridin-2-yl)-urea], the Ki was determined as 0.081 µM.

Turning to `CC(C)(C)OC(=O)CCNC(=O)Nc1cn2cc(-c3cccnc3)ccc2n1` [Example 1-33, 3-[3-(6-Pyridin-3-yl-imidazo[1,2-a]pyridin-2-yl)-ureido]-propionic acid tert-butyl ester], the Ki came to 0.043 µM.

On to `Cn1nnc(CCNC(=O)Nc2cn3cc(-c4cccnc4)ccc3n2)n1` [Example 1-36, 1-[2-(2-Methyl-2H-tetrazol-5-yl)-ethyl]-3-(6-pyridin-3-yl-imidazo[1,2-a]pyridin-2-yl)-urea], for which the affinity corresponds to a Ki of 0.277 µM.

`Cn1nnnc1CCNC(=O)Nc1cn2cc(-c3cccnc3)ccc2n1` [Example 1-37, 1-[2-(1-Methyl-1H-tetrazol-5-yl)-ethyl]-3-(6-pyridin-3-yl-imidazo[1,2-a]pyridin-2-yl)-urea] returned a Ki of 0.584 µM.

Compound `CCc1nnn(CCNC(=O)Nc2cn3cc(-c4cccnc4)ccc3n2)n1` [Example 1-44, 1-[2-(5-Ethyl-tetrazol-2-yl)-ethyl]-3-(6-pyridin-3-yl-imidazo[1,2-a]pyridin-2-yl)-urea] displayed a Ki of 0.177 µM.

By Ki is commonly meant a dissociation constant, usually derived from enzyme kinetics or from competition with a known ligand.

These data come from patent publication US8053574B2, “Organic compounds” (Novartis AG, priority 2007, dated 2011).
